scFv variants of Ab-91 (heavy chain) against a SARS-CoV-2 spike peptide

From the AlphaSeq antibody data of Engelhart et al. 2022 (doi:10.1038/s41597-022-01779-4), copy in the FLAb collection.

Target peptide (SARS-CoV-2 spike, HR2 region): PDVDLGDISGINAS

The variants keep the light chain, the linker and the frameworks of Ab-91 (scFv order VL, a (GGGGS)3 linker, VH).
VL: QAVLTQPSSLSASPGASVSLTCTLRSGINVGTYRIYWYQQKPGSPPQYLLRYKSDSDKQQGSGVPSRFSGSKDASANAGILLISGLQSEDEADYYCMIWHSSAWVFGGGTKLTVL
VH: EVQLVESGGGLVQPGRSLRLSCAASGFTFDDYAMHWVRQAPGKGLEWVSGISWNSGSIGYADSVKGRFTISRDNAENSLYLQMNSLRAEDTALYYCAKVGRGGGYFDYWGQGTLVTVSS

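The parent was found by panning a naive human phage display library on the peptide. In library AAYL51, one, two or three CDR residues were substituted; doubles and triples were drawn at random. Affinity was read by AlphaSeq, a pooled yeast mating assay with surface-displayed partners. The frequency of each diploid, read from paired DNA barcodes, reflects how well the two displayed proteins bind. Scores were corrected for input abundance and mapped to Kd with protein pairs of known affinity run in the same pool. Each pool was mated in three replicate cultures.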

The whole VH of each variant is written out.
Scale: log10 of Kd in nM, estimated from mating counts; low values are strong binders.
A mean of the replicates is given; it leaves out those without a signal.
"not detected" means that the variant was in the library but no mating with the target was seen in any replicate; the authors take this as a sign of poor binding, and no number exists.
Parent in this assay: reference entry 1.86, copy in this library 0.88.

| VH | mean log10 Kd (nM) | detected |
|---|---|---|
| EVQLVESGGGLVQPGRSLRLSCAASGFTGDDYSMHWVRQAPGKGLEWVSGISWNSGSIGYADSVKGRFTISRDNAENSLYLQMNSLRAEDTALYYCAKKGRGGGYFDYWGQGTLVTVSS | 4.39 | 2 of 3 |
| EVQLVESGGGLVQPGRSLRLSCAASFFTFDDYAMHWVRQAPGKGLEWVSGISWNSGSIGYADSVKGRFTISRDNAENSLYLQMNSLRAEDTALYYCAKVGRGGGFFDYWGQGTLVTVSS | 2.52 | 3 of 3 |
| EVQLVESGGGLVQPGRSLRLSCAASGFTFDDYAMHWVRQAPGKGLEWVSGISWNSGSFCYADSVKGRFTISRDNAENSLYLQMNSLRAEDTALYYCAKVGRGGGYFIYWGQGTLVTVSS | not detected | 0 of 3 |
| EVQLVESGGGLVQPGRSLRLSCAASGFTFDDYAMHWVRQAPGKGLEWVSGISWNSGSIGYTDSVRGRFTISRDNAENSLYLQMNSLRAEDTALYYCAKVGRGGGYFDYWGQGTLVTVSS | 2.83 | 3 of 3 |
| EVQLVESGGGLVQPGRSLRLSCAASGFLFDDYAMHWVRQAPGKGLEWVSGISWNSGSIGYADSVKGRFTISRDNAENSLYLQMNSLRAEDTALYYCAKVGRGGGYFDSWGQGTLVTVSS | 1.65 | 3 of 3 |
| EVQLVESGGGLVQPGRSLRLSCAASGFTFDDYAMHWVRQAPGKGLEWVSFASWNSGSIGYADSVKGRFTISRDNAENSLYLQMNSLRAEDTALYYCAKVCRGGGYFDYWGQGTLVTVSS | 5.63 | 1 of 3 |
| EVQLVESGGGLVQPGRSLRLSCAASGDTFDDYAMHWVRQAPGKGLEWVSGISWNSGSIGYADSVKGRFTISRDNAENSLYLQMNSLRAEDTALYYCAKQGRGCGYFDYWGQGTLVTVSS | 3.98 | 1 of 3 |
| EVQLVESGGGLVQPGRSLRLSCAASGHTFDDYAMHWVRQAPGKGLEWVSGISWNFGSIGYAPSVKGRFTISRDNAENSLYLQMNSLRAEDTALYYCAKVGRGGGYFDYWGQGTLVTVSS | not detected | 0 of 3 |
| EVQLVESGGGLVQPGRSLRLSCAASGFTFDDYIMHWVRQAPGKGLEWVSGISWNSGSIGTADDVKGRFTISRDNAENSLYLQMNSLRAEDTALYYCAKVGRGGGYFDYWGQGTLVTVSS | 4.54 | 2 of 3 |
| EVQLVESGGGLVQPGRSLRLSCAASGFTFDDYAMHWVRQAPGKGLEWVSGISWNSGSIGYDDSVKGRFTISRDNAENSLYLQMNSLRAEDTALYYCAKVGRGHGYFEYWGQGTLVTVSS | 1.12 | 3 of 3 |
| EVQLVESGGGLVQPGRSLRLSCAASGFTFDDYAMHWVRQAPGKGLEWVSGIMWNSGSIGYAYSVKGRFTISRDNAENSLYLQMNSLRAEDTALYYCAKVGRGFGYFDYWGQGTLVTVSS | not detected | 0 of 3 |
| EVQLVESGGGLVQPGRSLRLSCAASGFTFDDYAMHWVRQAPGKGLEWVSGISWLSQSIGYADSVKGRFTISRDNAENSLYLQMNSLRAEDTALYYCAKTGRGGGYFDYWGQGTLVTVSS | 4.49 | 2 of 3 |
| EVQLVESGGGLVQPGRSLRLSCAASGFTFDDYAMHWVRQAPGKGLEWVSGSSWNSGSIGYADSVKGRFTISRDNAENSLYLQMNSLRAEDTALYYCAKVGNGGLYFDYWGQGTLVTVSS | 3.81 | 1 of 3 |
| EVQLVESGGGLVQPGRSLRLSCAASGFTFDDYAMVWVRQAPGKGLEWVSTISWNSGSIGYADSVKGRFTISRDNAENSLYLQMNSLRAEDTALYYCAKVARGGGYFDYWGQGTLVTVSS | not detected | 0 of 3 |
| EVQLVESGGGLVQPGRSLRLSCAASGFTEDDIAMHWVRQAPGKGLEWVSGIQWNSGSIGYADSVKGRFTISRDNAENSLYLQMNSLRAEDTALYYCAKVGRGGGYFDYWGQGTLVTVSS | 3.87 | 2 of 3 |
| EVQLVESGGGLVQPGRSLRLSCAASGPTFDDYAMHWVRQAPGKGLEWVSGISCWSGSIGYADSVKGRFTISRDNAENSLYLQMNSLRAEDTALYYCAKVGRGGGYFDYWGQGTLVTVSS | 3.62 | 1 of 3 |
| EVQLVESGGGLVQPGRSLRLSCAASGFTFDDYAMHWVRQAPGKGLEWVSHISWWSGSIGYADSVKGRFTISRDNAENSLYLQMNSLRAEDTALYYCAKVGRGGGYFDYWGQGTLVTVSS | not detected | 0 of 3 |
| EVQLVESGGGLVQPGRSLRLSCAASGFTMDDYAMKWVRQAPGKGLEWVSGINWNSGSIGYADSVKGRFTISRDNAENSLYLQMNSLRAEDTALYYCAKVGRGGGYFDYWGQGTLVTVSS | 6.02 | 1 of 3 |
| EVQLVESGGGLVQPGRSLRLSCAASGFSMDDYAMHWVRQAPGKGLEWVSGISWNSGSIGYADSVKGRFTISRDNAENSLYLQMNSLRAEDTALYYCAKVGRGPGYFDYWGQGTLVTVSS | 5.43 | 1 of 3 |
| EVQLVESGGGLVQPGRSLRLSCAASGFTFDMYAMHWVRQAPGKGLEWVSGISWNSGSIGYADSVKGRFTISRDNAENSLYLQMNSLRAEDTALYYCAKNGSGGGYFDYWGQGTLVTVSS | 2.48 | 3 of 3 |

3 of these entries, quoted again:

| VH | mean log10 Kd (nM) | detected |
|---|---|---|
| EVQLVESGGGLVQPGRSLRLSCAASFFTFDDYAMHWVRQAPGKGLEWVSGISWNSGSIGYADSVKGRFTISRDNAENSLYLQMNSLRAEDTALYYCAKVGRGGGFFDYWGQGTLVTVSS | 2.52 | 3 of 3 |
| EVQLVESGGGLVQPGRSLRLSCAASGFLFDDYAMHWVRQAPGKGLEWVSGISWNSGSIGYADSVKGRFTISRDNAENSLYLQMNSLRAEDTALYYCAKVGRGGGYFDSWGQGTLVTVSS | 1.65 | 3 of 3 |
| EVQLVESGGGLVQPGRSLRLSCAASGHTFDDYAMHWVRQAPGKGLEWVSGISWNFGSIGYAPSVKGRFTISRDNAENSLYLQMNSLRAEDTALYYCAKVGRGGGYFDYWGQGTLVTVSS | not detected | 0 of 3 |

Empty control strains, which show no peptide, gave a signal in 21% of pairings with library AAYL51; the median was 4.54 and 95% of these signals were weaker than 3.26. No background was subtracted.